Target: High affinity cGMP-specific 3',5'-cyclic phosphodiesterase 9A (Homo sapiens, UniProt O76083)

By UniProt entry, the sequences of proteins in these tests, tags left out. Where a name states a change or a piece, a line headed by the entry shows the natural chain unless it says otherwise.
UniProt O76083: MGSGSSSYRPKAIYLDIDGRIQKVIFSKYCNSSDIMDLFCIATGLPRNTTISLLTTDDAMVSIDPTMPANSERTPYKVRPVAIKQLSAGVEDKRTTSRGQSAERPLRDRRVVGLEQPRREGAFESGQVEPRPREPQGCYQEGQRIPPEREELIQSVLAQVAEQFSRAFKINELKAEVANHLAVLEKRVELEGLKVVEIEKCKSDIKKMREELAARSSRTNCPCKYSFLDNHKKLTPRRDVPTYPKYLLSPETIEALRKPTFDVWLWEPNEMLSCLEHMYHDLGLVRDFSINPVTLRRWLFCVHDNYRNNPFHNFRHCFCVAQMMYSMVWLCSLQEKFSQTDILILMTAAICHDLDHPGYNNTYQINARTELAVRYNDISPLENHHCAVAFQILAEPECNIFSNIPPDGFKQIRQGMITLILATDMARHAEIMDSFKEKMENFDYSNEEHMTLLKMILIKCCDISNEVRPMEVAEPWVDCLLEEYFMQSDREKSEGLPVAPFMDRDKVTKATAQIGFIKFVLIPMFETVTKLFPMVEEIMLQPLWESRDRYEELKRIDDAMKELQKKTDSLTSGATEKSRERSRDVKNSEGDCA

**Q.** How did the IC50 turn out when CCCc1nn(C)c2c(=O)[nH]c(-c3cc(S(=O)(=O)N4CCN(C)CC4)ccc3OCC)nc12 was run?
**A.** > 10 µM

From ChEMBL document CHEMBL2176889, “Design, synthesis, and pharmacological evaluation of monocyclic pyrimidinones as novel inhibitors of PDE5” (J Med Chem, 2012)
